Data reported in ChEMBL document CHEMBL1134679, “Exploiting subsite S1 of trypsin-like serine proteases for selectivity: potent and selective inhibitors of urokinase-type plasminogen activator” (J Med Chem, 2001).

Target: Urokinase-type plasminogen activator (Homo sapiens, UniProt P00749)
Test: The compound was tested for inhibition of human urokinase type plasminogen activator (microPa)

SMILES | Ki [nM]
N=C(N)c1cc2cc(-c3cccc(-c4ccccc4)c3O)[nH]c2cc1O | 2000
N=C(N)c1cc2cc(-c3cccc(-c4ccccc4)c3O)[nH]c2cc1F | 20
